For the series, the system named is white mice. Kind of series: Example 4: inhibition of (−)-trans-(1S,2S)-U-50488 toxicity by its potentised enantiomer in white mice, blind randomised placebo-controlled, survival next morning. The following applies: i.p., estimated with the first 52 mice.

With (−)-trans-(1S,2S)-U-50488, the LD50 is recorded as 25 mg/kg.
